# scFv variants of Ab-14 (light chain) against a SARS-CoV-2 spike peptide

Data: MIT Lincoln Laboratory AlphaSeq set, Li et al. 2023, doi:10.1038/s41467-023-39022-2, as distributed in FLAb.

All variants were tested on one target, the spike HR2 peptide PDVDLGDISGINAS (SARS-CoV-2).

The variants keep the heavy chain, the linker and the frameworks of Ab-14 (scFv order VH, the linker GGGGSGGGGSGGGGS, VL).
VH: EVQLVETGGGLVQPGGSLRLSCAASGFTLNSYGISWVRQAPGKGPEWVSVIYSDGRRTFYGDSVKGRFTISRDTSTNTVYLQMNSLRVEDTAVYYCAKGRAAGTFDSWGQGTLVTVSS
VL: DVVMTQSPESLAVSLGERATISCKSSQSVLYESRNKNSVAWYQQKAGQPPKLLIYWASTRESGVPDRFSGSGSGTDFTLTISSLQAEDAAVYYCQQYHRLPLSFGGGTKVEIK

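The parent was found by panning a naive human phage display library on the peptide. This is the validation round: designs drawn from the data on random variants, tested in the same kind of assay. Group labels follow the data file (Ctrl: baseline library sampled from a position-specific scoring matrix, with some repeated check sequences; GP: Gaussian process model; Gen: genetic algorithm; a sequence that several methods proposed may carry one label only). The scFvs were displayed on barcoded MATa yeast, the peptide on MATalpha yeast. After mating in shaken culture at 30 °C for 16 h, diploids were selected and their barcode pairs sequenced. Scores were corrected for input abundance and mapped to Kd with protein pairs of known affinity run in the same pool. Each pool was mated in six replicate cultures.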

The parent's light chain CDRs are KSSQSVLYESRNKNSVA, WASTRES, QQYHRLPLS; each variant's own CDRs replace them letter for letter.
The read-out is the apparent dissociation constant on a log10 scale (nM): the lower, the stronger.
A mean of the replicates is given; it leaves out those without a signal.
An entry "n.d." has no value in the source: the pair was not observed among the diploids in that replicate. This suggests poor binding but is not conclusive.

CDR-L1	CDR-L2	CDR-L3	group	log10 Kd (nM) by replicate	mean log10 Kd (nM)	control signals
KSSQSELYESSNKNSMA	WASTRED	QQYHRLPLS	Ctrl	n.d. 1.23 1.97 2.25 n.d. n.d.	1.82	0/18
KSSQDVLYESQNKNSVA	DASTRES	QQHHRLPLS	Ctrl	0.96 1.08 1.03 1.07 1.31 1.03	1.08	0/18
KMSQSVLYESRNKNSVA	EASTRES	QQYHRLPLS	Ctrl+GP_Gen	-0.15 -0.43 -0.53 -0.32 -0.40 -0.34; 0.28 0.16 0.06 0.06 -0.04 0.02	-0.13	1/36 (2.76)
KSSQSVLMESRNKNSVA	WASTRED	QQYHRLFLS	Ctrl	n.d. n.d. n.d. n.d. n.d. n.d.	n.d.	0/18
KSPQSVLYESANKNSVA	HASTRES	QQYHRLPLS	Ctrl	0.40 -0.22 0.16 -0.28 -0.18 0.00	-0.02	0/18
MSSQSVYDESSNKNSVA	WASVRES	QQYHRLPLS	Ctrl	0.69 0.42 0.33 0.42 0.38 0.76	0.50	0/18
KMSQQVLYESRPKNSVA	WASTRES	QQYHRLPLS	Ctrl	n.d. n.d. n.d. n.d. n.d. n.d.	n.d.	0/18
KFSQSELTESRNKNSVA	WASTRES	QQYHRLPLS	Ctrl	0.83 0.80 0.88 0.62 0.52 1.05	0.78	1/18 (4.70)
KSSQSVLYESRNKNSVA	NASTRYS	QQYHRLPLS	Ctrl	0.83 1.71 0.88 1.28 0.66 2.26	1.27	0/18
KSSQSMLYESHNKNSVA	WASTRES	QQYHRLPLS	Ctrl	1.38 2.20 0.74 1.50 1.64 0.87	1.39	1/18 (1.43)
KSSQSVPMESRNKNSVA	WASVRES	QQYHRLPLS	Ctrl	0.93 1.30 1.41 1.43 1.45 2.05	1.43	1/18 (4.71)
KQSQSAEYESGNKNSVA	WASTRES	NQYHRLPLW	Ctrl	n.d. n.d. n.d. n.d. n.d. n.d.	n.d.	0/18
KSSQSDLYESRNKNSVA	WASTRES	QQYHRLPFS	Ctrl	1.45 2.80 2.47 1.82 1.62 2.01	2.03	0/18
KSSFSVLYESRNKNSVA	WASTRES	QQYHRLPLN	Ctrl	n.d. n.d. n.d. n.d. n.d. n.d.	n.d.	0/18
KSSQSVLAESRNKNSVA	MASTRSS	QQYHRLPLS	Ctrl	1.04 1.05 1.25 0.07 1.22 2.53	1.19	1/18 (2.65)
KSSQSVLYESRSKNSVA	WASTRES	QQQHRLPLS	Ctrl	n.d. n.d. n.d. n.d. n.d. n.d.	n.d.	1/18 (0.95)
KSSQSVLYESRNKNSVA	DASTRES	QQIHRLPLS	Ctrl	n.d. n.d. n.d. n.d. n.d. n.d.	n.d.	1/18 (2.24)
KISNSVLYESRNKNSVA	WASTRES	QQYHRLPLA	Ctrl	0.76 0.55 0.62 0.46 0.64 0.70	0.62	2/18 (3.14)
KSSQSFLYETLNKNSVA	WASTRES	QQYHRLPLS	Ctrl	0.87 1.54 1.49 0.95 1.35 1.19	1.23	1/18 (2.23)
KCSDSVLYESRNKNSVA	HASTRES	QQYFRLCLS	Ctrl	3.30 0.26 0.70 n.d. 1.63 1.60	1.50	0/18
KSLQSVLYESRNKNSVA	WASTRES	QQYHRLPLS	Ctrl	n.d. n.d. n.d. 2.46 n.d. n.d.	2.46	0/18
KLSQSVMYESRNKNSIA	MASTRES	QQYHRVPLS	Ctrl	n.d. n.d. n.d. n.d. n.d. n.d.	n.d.	0/18
KSSQSVLYESRNKNSVA	WASTRES	EQYVRLPLS	Ctrl	n.d. n.d. n.d. n.d. n.d. n.d.	n.d.	0/18
KSMQSALYESRNSNSVA	DASTRES	QQYHRLPLS	Ctrl	0.01 -0.16 -0.17 -0.26 -0.28 -0.16	-0.17	1/18 (2.50)
KSSQSVLYESRNKNSVA	WASTRES	QIYHRLPLS	Ctrl	n.d. n.d. n.d. n.d. n.d. n.d.	n.d.	0/18
KMSQSVLYESGNKNSVA	TGSTRES	QQYHRLPLS	Ctrl	0.10 0.07 0.02 -0.03 0.16 0.40	0.12	1/18 (2.16)
KFSQSVLYESRNKNSVA	WASTRES	QQYYRLPLS	Ctrl	0.84 0.53 0.50 0.55 0.61 1.30	0.72	0/18
KSSQSKLYVSRNKNSVA	NASTRES	CQYHRLPLS	Ctrl	n.d. 2.85 2.13 2.81 n.d. 3.21	2.75	2/18 (2.57)
KSSQSVLAEERQKNSVA	QASTRES	QQYHELPLS	Ctrl	1.23 2.32 2.71 n.d. 2.10 1.91	2.05	1/18 (1.87)
KLSQSVRYESRNKNSVA	WASTREF	QQYHQLVLF	Ctrl	1.36 2.31 1.96 n.d. 1.82 2.18	1.93	0/18
KSSQLVLHESRNYNSVA	EASTRES	QWYHRLPLS	Ctrl	2.65 2.01 1.94 1.64 1.87 2.07	2.03	0/18
KSSQSLLYEWRNKNSVA	WASTRES	QQYHRLPLS	Ctrl	n.d. n.d. n.d. n.d. n.d. n.d.	n.d.	0/18
KISQSVLMESRNKNSVA	WASTRES	QQYHRLPLS	Ctrl	0.43 0.36 0.20 0.20 0.32 0.55	0.34	0/18
KSEQSVLYESRNKNSVA	DDSTRES	QQYHRLPLS	Ctrl	2.40 1.47 1.90 1.24 1.38 1.50	1.65	1/18 (2.07)

The first 4 entries again:

{"CDR-L1": "KSSQSELYESSNKNSMA", "CDR-L2": "WASTRED", "CDR-L3": "QQYHRLPLS", "group": "Ctrl", "log10 Kd (nM) by replicate": "n.d. 1.23 1.97 2.25 n.d. n.d.", "mean log10 Kd (nM)": "1.82", "control signals": "0/18"}
{"CDR-L1": "KSSQDVLYESQNKNSVA", "CDR-L2": "DASTRES", "CDR-L3": "QQHHRLPLS", "group": "Ctrl", "log10 Kd (nM) by replicate": "0.96 1.08 1.03 1.07 1.31 1.03", "mean log10 Kd (nM)": "1.08", "control signals": "0/18"}
{"CDR-L1": "KMSQSVLYESRNKNSVA", "CDR-L2": "EASTRES", "CDR-L3": "QQYHRLPLS", "group": "Ctrl+GP_Gen", "log10 Kd (nM) by replicate": "-0.15 -0.43 -0.53 -0.32 -0.40 -0.34; 0.28 0.16 0.06 0.06 -0.04 0.02", "mean log10 Kd (nM)": "-0.13", "control signals": "1/36 (2.76)"}
{"CDR-L1": "KSSQSVLMESRNKNSVA", "CDR-L2": "WASTRED", "CDR-L3": "QQYHRLFLS", "group": "Ctrl", "log10 Kd (nM) by replicate": "n.d. n.d. n.d. n.d. n.d. n.d.", "mean log10 Kd (nM)": "n.d.", "control signals": "0/18"}

The authors' rule: three or more of the six replicates give a measured affinity, fewer mean a poor binder.
Three control strains display no target. For all light chain designs, 4% of the pairings with them gave a signal, with a median of 2.64 and one signal in twenty below 1.59, so weak values seen in few replicates may be background. The control count says in how many pairings with the empty strains this scFv gave a signal, with their mean in brackets.
A sequence measured in both rounds can read differently, since the two assays cover different ranges.
A sequence that the file lists under several names has all its replicates listed entry by entry, parted by semicolons.
The parent sequence was in this pool as ten entries: three were never detected, three once, and four in most replicates, with averages from 0.34 to 2.37.